# Antibody variant affinities, Ab-14 light chain, assay B

Source: Li et al. 2023 (doi:10.1038/s41467-023-39022-2), MIT Lincoln Laboratory and A-Alpha Bio; data file from the FLAb repository.

All variants were tested on one target, the spike HR2 peptide PDVDLGDISGINAS (SARS-CoV-2).

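The starting antibody came from a phage panning campaign against this peptide. The variants were designed computationally from a first round of random CDR variants and then made and measured. Their group label is 14L_GP_HC (GP: Gaussian process model; HC: hill climbing; a sequence that several methods proposed may carry one label only). AlphaSeq pools MATa yeast showing the antibodies with MATalpha yeast showing the peptide. Pairs that bind mate more often; barcode pairs of the diploids are counted by sequencing. Read counts were normalised to the haploid input and turned into Kd by a linear fit to BCL2-family pairs of known affinity, for each replicate. Mating was done six times.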

Each scFv is VH, three GGGGS repeats, VL, as in the parent Ab-14, and differs from it in the CDRs of the light chain only.
VH: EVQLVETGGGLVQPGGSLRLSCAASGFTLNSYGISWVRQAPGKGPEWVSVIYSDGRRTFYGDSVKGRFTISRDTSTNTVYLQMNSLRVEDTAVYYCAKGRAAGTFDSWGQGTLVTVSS
VL: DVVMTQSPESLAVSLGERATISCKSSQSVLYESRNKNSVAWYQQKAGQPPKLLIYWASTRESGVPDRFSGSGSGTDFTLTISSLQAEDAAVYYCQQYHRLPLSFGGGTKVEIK

Positions count from residue 1 of the parent VL; S26Y puts Y in place of S.
Numbers give log10(Kd / nM), so 0 is 1 nM and 3 is 1 µM. Smaller is tighter.
Averages over replicates are reported, and they cover detected replicates only.
The parent sequence was in this pool as ten entries: three were never detected, three once, and four in most replicates, with averages from 0.34 to 2.37.
Nonspecific signal, from three strains lacking the peptide, appeared in 4% of pairings of all light chain designs, centred on 2.64 (5% of these signals below 1.59); values are not corrected for it. Also given: how often the same scFv was detected with the empty control strains, with their mean in brackets.
Values of this round are not directly comparable with the first-round values of the same sequences.
In the paper, a design with two or fewer of six values counts as a poor binder.

changes	log10 Kd, replicates	mean, log10 nM	signal with controls
S26Y S28G N35V W56G	0.77 0.39 0.41 0.45 0.31 0.55	0.48	2/18 (3.00)
V29W W56G T59H	0.32 -0.24 -0.02 -0.07 0.08 0.16	0.04	1/18 (1.79)
S25L S26R V29W K36Q W56N	-0.35 -0.37 -0.47 -0.39 -0.52 -0.33	-0.41	1/18 (4.41)
S25Q K36T W56D	-0.03 -0.25 -0.49 -0.42 -0.57 -0.20	-0.33	3/18 (2.37)
S25L V29F W56G P101T	0.04 -0.14 -0.12 -0.61 -0.47 -0.33	-0.27	0/18
S25N V29W K36F W56G	0.16 0.16 0.66 0.29 0.38 0.50	0.36	0/18
S25Q Q27V Y31Q W56D	-0.21 -0.46 -0.34 -0.42 -0.49 -0.30	-0.37	1/18 (3.95)
S25Q V29D W56D	-0.42 -0.43 -0.48 -0.26 -0.60 -0.27	-0.41	1/18 (2.51)
K24I Y31I W56D	-0.42 -0.36 -0.13 -0.87 -0.08 -0.55	-0.40	0/18
Q27I V29Y R34P W56E E61M	0.89 0.94 0.25 0.65 1.04 0.88	0.78	1/18 (3.57)
S25L S26R V29T W56Q S103K	-0.03 0.08 0.01 -0.12 0.27 0.22	0.07	0/18
S25Q S28A V29F W56D S58N	0.22 0.18 -0.03 -0.03 -0.05 -0.13	0.02	0/18
V29I R34V W56H S62D	0.18 0.16 0.12 -0.04 0.24 -0.03	0.10	0/18
S25Q V29D R34V W56D	0.96 0.20 0.23 0.24 0.20 0.24	0.35	0/18
S26E W56H S62D R99Q	0.88 0.10 0.29 0.33 -0.26 0.08	0.23	1/18 (0.69)
S25L S26V Q27N V29T N35Q W56T	1.23 1.39 0.54 1.08 1.37 1.62	1.21	0/18
S25L S26L L30V S33G W56H S62D	0.60 0.47 0.39 0.44 0.57 0.43	0.48	1/18 (2.35)
Q27I V29D R34E W56E T59Q	0.62 0.62 0.45 0.84 0.46 0.84	0.64	4/18 (3.43)
Q27W R34G W56H E61L S62D	1.28 0.35 0.78 0.24 0.61 0.36	0.60	0/18
V29E R34G W56H	0.64 0.32 0.60 0.28 0.15 0.75	0.46	1/18 (3.69)
Q27K V29E Y31F W56N	-0.16 -0.25 -0.36 -0.38 -0.32 -0.28	-0.29	0/18
S25L S26R S28Q V29T S33T W56Q S62D	0.02 -0.17 -0.18 -0.32 -0.11 0.13	-0.11	2/18 (2.83)
S25F Q27D V29D Y31L N35T W56N	0.35 0.53 0.43 0.49 0.37 0.69	0.48	1/18 (2.44)
S26D S28G W56G T59Q	-0.16 0.15 -0.23 -0.05 -0.03 0.17	-0.03	0/18
Q27I V29Y R34M W56E A57G	-0.16 0.06 -0.05 -0.42 -0.34 0.09	-0.14	0/18
S25L S26G S28G W56G T59L	-0.01 -0.04 0.02 -0.05 0.24 0.35	0.09	0/18
S25L S26P S28Q W56G	-0.38 -0.20 0.13 -0.19 -0.35 -0.14	-0.19	1/18 (2.16)
S25V N35T K36F W56N	0.46 0.06 0.11 0.20 0.13 0.37	0.22	0/18
S25V Q27E V29Y Y31L W56E	0.62 0.33 0.16 -0.18 0.37 0.15	0.24	1/18 (1.71)
Q27W R34N W56H S62D	0.37 1.51 -0.05 -0.23 0.59 0.62	0.47	1/18 (1.47)

For reference, 5 entries of the list once more:

{"changes": "S25N V29W K36F W56G", "log10 Kd, replicates": "0.16 0.16 0.66 0.29 0.38 0.50", "mean, log10 nM": "0.36", "signal with controls": "0/18"}
{"changes": "S25L S26P S28Q W56G", "log10 Kd, replicates": "-0.38 -0.20 0.13 -0.19 -0.35 -0.14", "mean, log10 nM": "-0.19", "signal with controls": "1/18 (2.16)"}
{"changes": "K24I Y31I W56D", "log10 Kd, replicates": "-0.42 -0.36 -0.13 -0.87 -0.08 -0.55", "mean, log10 nM": "-0.40", "signal with controls": "0/18"}
{"changes": "S25L S26L L30V S33G W56H S62D", "log10 Kd, replicates": "0.60 0.47 0.39 0.44 0.57 0.43", "mean, log10 nM": "0.48", "signal with controls": "1/18 (2.35)"}
{"changes": "S25L S26V Q27N V29T N35Q W56T", "log10 Kd, replicates": "1.23 1.39 0.54 1.08 1.37 1.62", "mean, log10 nM": "1.21", "signal with controls": "0/18"}